Tests used:
P-gp [1] = target: T1, P-gp (Homo sapiens, UniProt P08183); assay: in vitro; conditions: Caco-2
P-gp [2] = target: T1, P-gp; conditions: 1 µM

By UniProt entry, the sequences of proteins in these tests, tags left out.
UniProt P08183, whole entry: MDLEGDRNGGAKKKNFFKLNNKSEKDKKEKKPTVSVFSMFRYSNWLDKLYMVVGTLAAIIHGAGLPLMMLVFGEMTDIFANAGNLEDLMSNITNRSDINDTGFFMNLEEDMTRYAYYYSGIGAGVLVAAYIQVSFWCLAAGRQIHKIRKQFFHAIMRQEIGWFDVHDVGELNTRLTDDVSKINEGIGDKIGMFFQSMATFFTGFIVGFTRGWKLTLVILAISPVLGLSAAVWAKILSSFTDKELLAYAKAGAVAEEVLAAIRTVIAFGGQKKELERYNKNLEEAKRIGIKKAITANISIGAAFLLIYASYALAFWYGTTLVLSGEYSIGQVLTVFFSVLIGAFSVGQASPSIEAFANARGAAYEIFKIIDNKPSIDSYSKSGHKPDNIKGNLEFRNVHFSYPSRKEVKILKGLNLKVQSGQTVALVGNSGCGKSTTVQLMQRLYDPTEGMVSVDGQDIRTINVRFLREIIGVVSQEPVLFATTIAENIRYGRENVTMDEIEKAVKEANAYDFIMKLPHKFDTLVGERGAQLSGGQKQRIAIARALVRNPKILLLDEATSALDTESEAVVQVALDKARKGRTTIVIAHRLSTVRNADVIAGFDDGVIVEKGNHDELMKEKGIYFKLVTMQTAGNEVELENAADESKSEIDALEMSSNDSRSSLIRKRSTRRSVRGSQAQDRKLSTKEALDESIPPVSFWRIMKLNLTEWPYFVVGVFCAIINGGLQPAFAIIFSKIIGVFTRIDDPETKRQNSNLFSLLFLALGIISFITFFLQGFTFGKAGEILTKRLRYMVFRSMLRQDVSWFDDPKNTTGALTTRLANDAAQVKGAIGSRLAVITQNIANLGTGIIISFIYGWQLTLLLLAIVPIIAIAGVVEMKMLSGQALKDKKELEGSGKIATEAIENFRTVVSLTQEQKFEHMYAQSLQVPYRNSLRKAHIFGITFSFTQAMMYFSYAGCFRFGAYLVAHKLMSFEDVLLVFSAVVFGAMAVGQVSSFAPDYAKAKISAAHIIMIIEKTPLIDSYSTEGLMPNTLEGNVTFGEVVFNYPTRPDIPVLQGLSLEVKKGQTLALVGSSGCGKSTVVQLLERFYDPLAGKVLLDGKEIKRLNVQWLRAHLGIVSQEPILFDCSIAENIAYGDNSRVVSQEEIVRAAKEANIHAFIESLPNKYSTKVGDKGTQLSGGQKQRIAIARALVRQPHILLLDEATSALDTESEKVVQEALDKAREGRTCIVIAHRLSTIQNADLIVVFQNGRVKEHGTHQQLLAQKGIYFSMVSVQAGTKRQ

Row | efflux ratio at 60 min, 5 µM (P-gp [1]) | Molecule | Percentage of inhibition (P-gp) (P-gp [2]) [%]
1 | 48.7 | C[C@H]1O[C@@H](O[C@H]2[C@@H](O)C[C@H](O[C@H]3[C@@H](O)C[C@H](O[C@H]4CC[C@@]5(C)[C@H](CC[C@@H]6[C@@H]5C[C@@H](O)[C@]5(C)[C@@H](C7=CC(=O)OC7)CC[C@]65O)C4)O[C@@H]3C)O[C@@H]2C)C[C@H](O)[C@@H]1O [Digoxin, reference compound] | –
2 | – | LY335979 | 94.8

From paper PMC11211886 (Frontiers in Pharmacology, 2024)
